{"sequences": {"note": "Chains of the proteins cited; added tags and fusions are not shown.", "UniProt Q9UQD0, whole entry, looked up": "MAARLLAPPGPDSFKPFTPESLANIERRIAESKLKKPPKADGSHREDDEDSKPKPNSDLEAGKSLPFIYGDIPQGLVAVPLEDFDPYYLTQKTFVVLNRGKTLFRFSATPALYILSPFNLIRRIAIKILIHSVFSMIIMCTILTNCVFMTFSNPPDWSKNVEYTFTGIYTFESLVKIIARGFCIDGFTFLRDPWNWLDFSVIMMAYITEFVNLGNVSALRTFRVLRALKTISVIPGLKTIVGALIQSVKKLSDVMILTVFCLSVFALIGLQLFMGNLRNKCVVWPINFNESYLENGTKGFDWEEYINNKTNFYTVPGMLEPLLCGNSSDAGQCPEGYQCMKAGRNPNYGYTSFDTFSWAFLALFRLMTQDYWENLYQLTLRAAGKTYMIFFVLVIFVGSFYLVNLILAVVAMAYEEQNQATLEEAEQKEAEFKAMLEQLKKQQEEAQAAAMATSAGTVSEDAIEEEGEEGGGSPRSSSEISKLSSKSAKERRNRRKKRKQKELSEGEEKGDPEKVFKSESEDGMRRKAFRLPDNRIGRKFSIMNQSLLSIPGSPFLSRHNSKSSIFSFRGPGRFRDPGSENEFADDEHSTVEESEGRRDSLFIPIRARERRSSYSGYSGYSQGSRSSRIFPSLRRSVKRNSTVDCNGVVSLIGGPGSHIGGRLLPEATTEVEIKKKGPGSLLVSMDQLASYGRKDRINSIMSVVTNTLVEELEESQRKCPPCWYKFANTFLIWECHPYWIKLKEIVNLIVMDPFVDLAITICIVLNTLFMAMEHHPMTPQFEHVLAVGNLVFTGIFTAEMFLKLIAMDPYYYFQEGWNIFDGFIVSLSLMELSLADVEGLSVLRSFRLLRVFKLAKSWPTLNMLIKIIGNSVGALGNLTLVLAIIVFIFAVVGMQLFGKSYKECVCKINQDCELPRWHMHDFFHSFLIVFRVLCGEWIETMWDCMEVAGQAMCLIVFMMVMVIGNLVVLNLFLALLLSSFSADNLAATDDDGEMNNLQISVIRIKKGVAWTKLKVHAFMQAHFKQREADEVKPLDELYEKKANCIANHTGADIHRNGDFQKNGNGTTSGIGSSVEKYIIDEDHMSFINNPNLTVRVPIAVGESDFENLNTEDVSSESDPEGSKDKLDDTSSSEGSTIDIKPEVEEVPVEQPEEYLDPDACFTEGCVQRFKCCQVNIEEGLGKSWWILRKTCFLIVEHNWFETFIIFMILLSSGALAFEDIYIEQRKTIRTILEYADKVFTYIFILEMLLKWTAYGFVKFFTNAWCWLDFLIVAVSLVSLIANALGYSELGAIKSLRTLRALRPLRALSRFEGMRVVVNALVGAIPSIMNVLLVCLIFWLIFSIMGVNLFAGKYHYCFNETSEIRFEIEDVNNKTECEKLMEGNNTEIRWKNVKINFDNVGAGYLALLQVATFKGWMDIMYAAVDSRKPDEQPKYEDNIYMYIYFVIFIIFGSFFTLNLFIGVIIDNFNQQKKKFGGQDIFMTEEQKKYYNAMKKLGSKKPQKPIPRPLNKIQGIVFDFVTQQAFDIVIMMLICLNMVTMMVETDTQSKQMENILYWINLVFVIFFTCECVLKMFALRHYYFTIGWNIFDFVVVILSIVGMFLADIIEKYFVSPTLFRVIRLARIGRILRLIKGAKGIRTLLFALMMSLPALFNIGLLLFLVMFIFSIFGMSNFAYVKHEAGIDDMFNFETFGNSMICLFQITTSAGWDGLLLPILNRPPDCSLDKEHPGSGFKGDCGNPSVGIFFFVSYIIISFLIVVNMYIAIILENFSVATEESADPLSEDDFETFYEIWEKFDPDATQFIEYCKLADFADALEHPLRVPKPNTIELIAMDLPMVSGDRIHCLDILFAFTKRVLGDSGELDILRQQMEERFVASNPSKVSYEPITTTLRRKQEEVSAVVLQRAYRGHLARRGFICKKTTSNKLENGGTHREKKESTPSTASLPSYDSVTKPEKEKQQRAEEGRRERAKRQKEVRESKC"}, "source": "patent US11918571B2", "about": "“Compounds and their methods of use” (Praxis Precision Medicines, Inc., priority 2017, dated 2024)", "biological_target": "human Nav1.6 (hNav1.6) (Homo sapiens, UniProt Q9UQD0)", "experiment": "Modulation of late sodium current (INaL), PatchXpress electrophysiology, ATX-II evoked", "assay_type": "cell-based", "conditions": "1 μM compound; HEK-293 cells expressing recombinant human Nav1.6; late current evoked by 300 nM ATX-II", "protocol": "Functional characterization of exemplary compounds to modulate INaL expressed by the Nav1.6 voltage-gated sodium channel was accomplished using the PatchXpress™ high throughput electrophysiology platform (Molecular Devices, Sunnyvale, CA). HEK-293 cells expressing recombinant, human Nav1.6 (hNav1.6) were grown in DMEM/high-glucose Dulbecco's modified, 10% FBS, 2 mM sodium pyruvate, 10 mM HEPES and 400 μg/mL G418. Cells were grown to 50%-80% confluency prior to harvesting. Trypsinized cells were washed, allowed to recover for 1 hour and then resuspended in extracellular recording solution at a concentration of 1×10^6 cells/ml. The onboard liquid handling facility of the PatchXpress was used for dispensing cells and applying test compounds. Nay late currents were evoked by the application of 300 nM ATX-II. INaL was evoked by depolarizing pulses to 0 mV for 200 ms from a non-inactivating holding potential (e.g., −120 mV) at a frequency of 0.1 Hz. INaL amplitude and stability were determined by analyzing the mean current amplitude over the final 20 ms of the test pulse. Following steady state block with exemplary compounds (e.g., as described herein), a Na^+ free solution containing an impermeant cation (e.g., Choline or NDMG) was added to confirm the identify of the sodium current. […]", "data": [{"smiles": "FC1(F)CC(Oc2ccc(-c3ccn4nncc4c3)cc2)C1", "values": [{"measurement": "INaL v1.6 (1 μM, % Inhibition)", "value": "B (inhibition of between about 30% to about 70%)"}]}]}
